Here are results for one molecule from ChEMBL document CHEMBL4038300, “Return of D4 Dopamine Receptor Antagonists in Drug Discovery” (J Med Chem, 2017).

The target of the experiment is Sigma non-opioid intracellular receptor 1 (Homo sapiens, UniProt Q99720). The experiment is described as follows: Inhibition of sigma1 receptor (unknown origin).

Broadly, the Ki is the equilibrium dissociation constant of an inhibitor or competing ligand from its target. Lower therefore signals tighter binding. In the case of `CC(C)Oc1cccnc1N(C)C1CCN(Cc2ccc(I)cc2)CC1`, the Ki worked out at 0.0821 µM.
